Reference: patent publication US11046949B2, “Method and system for microbial lysis using periodates” (priority 2014, dated 2021)

Tested on: Mycobacterium smegmatis
Assay: Periodate extraction method, release of DNA from Mycobacterium smegmatis
Conditions: heating at 80° C. for about 20 min

**Q.** How did the “release of DNA” value turn out when `[O-][I+3]([O-])([O-])O` [Periodate, sodium (meta)periodate] was run?
**A.** about 100%
